Source: article PMC3118939 (Chemical research in toxicology, 2011)

What was measured:
[1] = tested on: human hepatocytes; test: 4-ABP- and HAA-DNA adduct formation in freshly cultured human hepatocytes; settings: human versus rat hepatocytes; 10 μM
[2] = tested on: rat hepatocytes; settings: dose 10 μM; cited from earlier work

For `Nc1ccc(-c2ccccc2)cc1` [4-ABP, 4-aminobiphenyl], the “adduct level in human hepatocytes relative to rat hepatocytes” value [1] is listed as “similar” and the “dose converted into N-oxidation products” value [2] is listed as “up to 23%”.
